Reference: patent publication US11242555B2, “Molecular sensors and uses thereof” (New York University, priority 2018, dated 2022)

System: flexible molecular sensor (DNA)
Assay: Flexible (tongs-shaped) molecular sensor in solution, groove binders and polypeptides (FRET ratio)
Type: binding

| Substance | FRET ratio as a function of compound concentration |
| --- | --- |
| tetra-lysine | increase the FRET ratio |
| penta-lysine | increase the FRET ratio |
